Reference: ChEMBL document CHEMBL4422622, “Identification of Mineralocorticoid Receptor Modulators with Low Impact on Electrolyte Homeostasis but Maintained Organ Protection” (J Med Chem, 2019)

How the values were obtained:
[1] = target: T1, Mineralocorticoid receptor (Homo sapiens, UniProt P08235)
T1 sequence (P08235 whole entry): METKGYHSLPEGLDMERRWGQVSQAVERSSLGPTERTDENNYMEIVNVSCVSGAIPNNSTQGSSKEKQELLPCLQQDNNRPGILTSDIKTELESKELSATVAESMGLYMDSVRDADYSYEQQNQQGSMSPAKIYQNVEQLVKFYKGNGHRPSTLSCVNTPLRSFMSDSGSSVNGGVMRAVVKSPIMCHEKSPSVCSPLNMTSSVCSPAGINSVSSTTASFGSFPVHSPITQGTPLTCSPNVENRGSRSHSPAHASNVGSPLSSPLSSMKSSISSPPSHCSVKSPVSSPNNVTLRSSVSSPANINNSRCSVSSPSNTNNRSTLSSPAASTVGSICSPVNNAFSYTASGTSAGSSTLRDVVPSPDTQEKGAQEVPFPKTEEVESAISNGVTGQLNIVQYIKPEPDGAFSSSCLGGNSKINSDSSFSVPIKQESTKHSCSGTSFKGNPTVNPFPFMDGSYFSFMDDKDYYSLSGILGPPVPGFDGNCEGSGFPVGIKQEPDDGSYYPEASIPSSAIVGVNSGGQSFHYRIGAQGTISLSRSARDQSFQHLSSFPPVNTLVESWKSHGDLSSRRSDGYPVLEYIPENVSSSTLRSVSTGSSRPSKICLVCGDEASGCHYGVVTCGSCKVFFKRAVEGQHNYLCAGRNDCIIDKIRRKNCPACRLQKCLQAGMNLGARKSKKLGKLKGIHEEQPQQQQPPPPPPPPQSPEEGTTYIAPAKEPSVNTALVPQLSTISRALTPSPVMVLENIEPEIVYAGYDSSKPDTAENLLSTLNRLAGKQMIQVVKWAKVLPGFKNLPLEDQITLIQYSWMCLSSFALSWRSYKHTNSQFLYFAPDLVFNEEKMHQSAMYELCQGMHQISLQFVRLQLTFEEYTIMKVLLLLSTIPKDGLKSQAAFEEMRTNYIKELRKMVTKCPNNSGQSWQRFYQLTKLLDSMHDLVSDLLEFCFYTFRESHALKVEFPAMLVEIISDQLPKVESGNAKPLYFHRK

[2] = target: T1, Mineralocorticoid receptor; remark: listed apart in the source
[3] = target: T1, Mineralocorticoid receptor; remark: listed apart in the source
Glucocorticoid receptor = target: T2, Glucocorticoid receptor (Homo sapiens, UniProt P04150)
T2 sequence (P04150 whole entry): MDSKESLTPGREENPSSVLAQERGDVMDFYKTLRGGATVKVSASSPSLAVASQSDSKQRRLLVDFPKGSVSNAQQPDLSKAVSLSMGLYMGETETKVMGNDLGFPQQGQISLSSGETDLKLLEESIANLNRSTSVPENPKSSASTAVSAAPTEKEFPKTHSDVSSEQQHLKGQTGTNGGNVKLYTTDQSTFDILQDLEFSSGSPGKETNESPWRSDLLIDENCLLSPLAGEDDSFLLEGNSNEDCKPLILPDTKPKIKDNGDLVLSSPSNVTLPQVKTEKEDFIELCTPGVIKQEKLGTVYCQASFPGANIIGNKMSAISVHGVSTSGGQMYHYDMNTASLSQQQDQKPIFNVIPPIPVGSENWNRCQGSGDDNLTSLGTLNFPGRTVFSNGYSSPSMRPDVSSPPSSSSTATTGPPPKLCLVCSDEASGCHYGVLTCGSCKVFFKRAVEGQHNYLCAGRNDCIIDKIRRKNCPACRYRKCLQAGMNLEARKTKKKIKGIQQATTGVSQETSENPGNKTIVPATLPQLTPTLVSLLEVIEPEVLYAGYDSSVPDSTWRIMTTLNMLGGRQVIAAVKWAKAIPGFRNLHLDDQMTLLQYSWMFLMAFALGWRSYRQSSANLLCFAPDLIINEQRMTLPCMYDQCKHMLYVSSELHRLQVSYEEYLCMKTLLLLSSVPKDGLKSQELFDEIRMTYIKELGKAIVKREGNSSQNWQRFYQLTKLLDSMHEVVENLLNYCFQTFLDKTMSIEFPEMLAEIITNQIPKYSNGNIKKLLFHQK

## NC(=O)C[C@H]1COc2cc(Cl)ccc2N1C(=O)c1ccc2c(c1)NC(=O)CO2
[1]
  IC50: 50.1 nM
[2]
  Ki: 3.98 nM

## CNC(=O)C[C@H]1COc2cc(Cl)ccc2N1C(=O)c1ccc2c(c1)NC(=O)CO2
[3]
  IC50: > 10000 nM
Glucocorticoid receptor
  Ki: 316 nM

## CNC(=O)C[C@H]1COc2ccccc2N1C(=O)c1ccc2c(c1)NC(=O)CO2
[1]
  IC50: 631 nM
[2]
  Ki: 50.1 nM

## CNC(=O)C[C@H]1COc2cc(Br)ccc2N1C(=O)c1ccc2c(c1)NC(=O)CO2
[1]
  IC50: 50.1 nM
[2]
  Ki: 2.51 nM
